# Test results published in PMC3961306, “Comparison of the Cancer Gene Targeting and Biochemical Selectivities of All Targeted Kinase Inhibitors Approved for Clinical Use” (PLoS ONE, 2014).
# Experiments:
# Assay in all cases: Kinase profiling in a biochemical assay panel (mobility shift assays and ELISA), %-inhibition at 1 μM; selectivity entropy
# [1] = biological target: panel of more than 300 wild-type and mutant kinases (313 kinase panel) (Homo sapiens, UniProt Q14289); conditions: 1 µM
# [2] = biological target: panel of more than 300 wild-type and mutant kinases (313 kinase panel) (Homo sapiens, UniProt P53778); conditions: 1 µM
# [3] = biological target: panel of more than 300 wild-type and mutant kinases (313 kinase panel) (Homo sapiens, UniProt Q8IU85); conditions: 1 µM
# [4] = biological target: panel of more than 300 wild-type and mutant kinases (313 kinase panel) (Homo sapiens, UniProt Q99759); conditions: 1 µM
# [5] = biological target: panel of more than 300 wild-type and mutant kinases (313 kinase panel) (Homo sapiens, UniProt Q96KB5); conditions: 1 µM
# [6] = biological target: panel of more than 300 wild-type and mutant kinases (313 kinase panel) (Homo sapiens, UniProt P51617); conditions: 1 µM
# [7] = biological target: panel of more than 300 wild-type and mutant kinases (313 kinase panel) (Homo sapiens, UniProt P15056, V600E); conditions: 1 µM
# [8] = biological target: panel of more than 300 wild-type and mutant kinases (313 kinase panel) (Homo sapiens, UniProt P29320); conditions: 1 µM
# [9] = biological target: panel of more than 300 wild-type and mutant kinases (313 kinase panel) (Homo sapiens, UniProt Q15831); conditions: 1 µM
# [10] = biological target: panel of more than 300 wild-type and mutant kinases (313 kinase panel) (Homo sapiens, UniProt O00418); conditions: 1 µM
# [11] = biological target: panel of more than 300 wild-type and mutant kinases (313 kinase panel) (Homo sapiens, UniProt P07333); conditions: 1 µM
# [12] = biological target: panel of more than 300 wild-type and mutant kinases (313 kinase panel) (Homo sapiens, UniProt Q13627)
# [13] = biological target: panel of more than 300 wild-type and mutant kinases (313 kinase panel) (Homo sapiens, UniProt P00519, E255K); conditions: 1 µM
# [14] = biological target: panel of more than 300 wild-type and mutant kinases (313 kinase panel) (Homo sapiens, UniProt P42685); conditions: 1 µM
# [15] = biological target: panel of more than 300 wild-type and mutant kinases (313 kinase panel) (Homo sapiens, UniProt Q13188); conditions: 1 µM
# [16] = biological target: panel of more than 300 wild-type and mutant kinases (313 kinase panel) (Homo sapiens, UniProt Q9HBH9); conditions: 1 µM
# [17] = biological target: panel of more than 300 wild-type and mutant kinases (313 kinase panel) (Homo sapiens, UniProt Q8N4C8); conditions: 1 µM
# [18] = biological target: panel of more than 300 wild-type and mutant kinases (313 kinase panel) (Homo sapiens, UniProt P22455, V550L); conditions: 1 µM
# [19] = biological target: panel of more than 300 wild-type and mutant kinases (313 kinase panel) (Homo sapiens, UniProt P51957); conditions: 1 µM
# [20] = biological target: panel of more than 300 wild-type and mutant kinases (313 kinase panel) (Homo sapiens, UniProt P00519); conditions: 1 µM
# [21] = biological target: panel of more than 300 wild-type and mutant kinases (313 kinase panel) (Homo sapiens, UniProt O15146); conditions: 1 µM
# [22] = biological target: panel of more than 300 wild-type and mutant kinases (313 kinase panel) (Homo sapiens, UniProt Q9P289); conditions: 1 µM
# [23] = biological target: panel of more than 300 wild-type and mutant kinases (313 kinase panel) (Homo sapiens, UniProt Q13882); conditions: 1 µM
smiles,measurement,setting,value
COc1cc2ncnc(Nc3ccc(F)c(Cl)c3)c2cc1OCCCN1CCOCC1 [gefitinib],%-inhibition of PYK2,[1],1.35%
same,%-inhibition of p38γ,[2],2.65%
same,"%-inhibition, CaMK1δ",[3],-1.74%
C[C@@H]1CCN(C(=O)CC#N)C[C@@H]1N(C)c1ncnc2[nH]ccc12 [tofacitinib],%-inhibition of MAP3K3,[4],-15%
same,%-inhibition of PBK,[5],-12%
same,%-inhibition of IRAK1,[6],7.45%
same,"%-inhibition, BRAF(V600E)",[7],1.08%
same,%-inhibition of EPHA3,[8],-16%
same,%-inhibition of LKB1,[9],-5%
same,%-inhibition of EEF2K,[10],-4.3%
same,%-inhibition of FMS,[11],6%
same,%-inhibition of DYRK1A,[12],-12%
same,"%-inhibition, ABL(E255K)",[13],-3.76%
same,%-inhibition of FRK,[14],0.0972%
same,%-inhibition of MST2,[15],3.29%
same,%-inhibition of MNK2,[16],3.71%
same,%-inhibition of MINK,[17],-1.35%
same,%-inhibition of FGFR4(V550L),[18],2%
same,%-inhibition of NEK4,[19],-5.68%
same,"%-inhibition, ABL",[20],-1.44%
same,%-inhibition of MUSK,[21],1%
same,%-inhibition of MST4,[22],-2.22%
same,"%-inhibition, BRK",[23],-6%
